# OPERA 2.9 data: properties

From the experimental data distributed with OPERA 2.9.

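The numbers are reported measurements, compiled and curated for the OPERA QSAR suite. One number stands for a compound and property, with no spread given. Conditions of the individual experiments are not part of the data. Where a salt, mixture or single isomer is drawn, the source does not say that exactly this form was tested. Some entries may be limits or estimates that an upstream database listed as plain numbers.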

The melting point is given in degrees Celsius. The boiling point refers to atmospheric pressure (760 mmHg), by the definition of the set. logP is the log10 of the octanol-water partition coefficient; higher is more lipophilic. Solubility in water is on a log10 molar scale (set defined at 25 °C). Vapor pressure is log10 of mmHg; the set covers 15 to 30 °C, mostly 20 to 25 °C. The unbound fraction in human plasma runs from 0 (all bound) to 1 (all free). Clint is human hepatic intrinsic clearance in µL/min per million cells; 0 means that no clearance was seen.

The entry for C=CC(=O)OCCC[Si](OC)(OC)OC [2-Propenoic acid, 3-(trimethoxysilyl)propyl ester] lists water solubility -4.606 (log10 mol/L) and vapor pressure -0.813 (log10 mmHg).
The entry for Cc1ccc(S(=O)(=O)NC(O)=Nc2ccccc2)cc1 [4-Methyl-N-(phenylcarbamoyl)benzenesulfonamide] lists mp 154.5 °C and water solubility -2.001 (log10 mol/L).
The entry for CCC(=O)O[C@]1(C(=O)S)[C@H](C)C[C@H]2[C@@H]3C[C@H](F)C4=CC(=O)C=C[C@]4(C)[C@@]3(F)[C@@H](O)C[C@@]21C lists log Kow 1.298 and water solubility -3.943 (log10 mol/L).
The entry for O=S(=O)(O)C(S(=O)(=O)O)S(=O)(=O)O [Methanetrisulphonic acid] lists log Kow -2.56 and water solubility -2.489 (log10 mol/L).
The entry for CC(=O)OCC1CCC(C)=CC1C (centres undefined) [2,4-Dimethylcyclohex-3-ene-1-methyl acetate] lists log Kow 4.2 and water solubility -3.25 (log10 mol/L) and vapor pressure -0.867 (log10 mmHg).
The entry for CCC(=C(c1ccc(O)cc1)c1ccc(OCCN(C)C)cc1)c1ccccc1 [4-hydroxytamoxifen] lists fraction unbound 0.0153 and hepatic Clint 16 µL/min/10^6 cells.
The entry for CCCCCCCC[N+](C)(C)C.COS(=O)(=O)[O-] [1-Octanaminium, N,N,N-trimethyl-, methyl sulfate] lists mp 68 °C and log Kow -1.86.
The entry for O=C1CCCCCCCCCCCCCCCO1 [Oxacycloheptadecan-2-one] lists log Kow 7.3 and water solubility -6.393 (log10 mol/L) and vapor pressure -3.539 (log10 mmHg).
The entry for CCCCCCCCCCOS(=O)(=O)[O-].[Na+] [Sodium decyl sulfate] lists mp 168 °C and log Kow 1.72.
The entry for CC(=O)Nc1ncc([N+](=O)[O-])s1 [Nithiamide] lists water solubility -2.07 (log10 mol/L) and vapor pressure -5.733 (log10 mmHg).
The entry for CC1(C)NC(=O)N(c2ccc([N+](=O)[O-])c(C(F)(F)F)c2)C1=O lists log Kow 1.8 and water solubility -4.879 (log10 mol/L) and fraction unbound 0.167.
The entry for O=c1[nH]c2[nH]cnc(=O)c2[nH]1 [1H-Purine-6,8-dione, 7,9-dihydro-] lists log Kow 0.246 and water solubility -2.959 (log10 mol/L).
The entry for C[N+](C)(C)[O-] [N,N-Dimethyl-methanamine-N-oxide] lists bp 158 °C and log Kow -2.79 and water solubility 0.781 (log10 mol/L) and vapor pressure -0.754 (log10 mmHg).
The entry for CC1=C(O)C(=O)C(C)O1 (centres undefined) [4-Hydroxy-2,5-dimethyl-3(2H)furanone] lists log Kow 0.95 and vapor pressure -2.216 (log10 mmHg).
The entry for Clc1ccc(Oc2ccc(Cl)c(Cl)c2Cl)cc1Cl [2,3,3',4,4'-Pentachlorodiphenyl ether] lists mp 65 °C and water solubility -7.67 (log10 mol/L).
The entry for C[C@H](O)[C@H](O)[C@@H](O)[C@@H](O)C=O [L-Rhamnose] lists log Kow -2.17 and vapor pressure -6.087 (log10 mmHg).
The entry for COc1ccc2[nH]c(=S)[nH]c2c1 [5-Methoxy-2-mercaptobenzimidazole] lists log Kow 1.172 and water solubility -2.751 (log10 mol/L).
The entry for O=C(O)c1cn(C2CC2)c2c(F)c(N3C[C@@H]4CCCN[C@@H]4C3)c(F)cc2c1=O [8-Desmethoxy-8-fluoro moxifloxacin] lists log Kow -0.5 and water solubility -2.192 (log10 mol/L).
The entry for C[C@]12C[C@@H](O)[C@H]3[C@@H]([C@H]4C[C@]5(C#N)[C@@H](C(=O)CC[C@]35C)C4=O)[C@@H]1CC[C@@]21CCC(=O)O1 lists mp 345.7 °C and water solubility -4.012 (log10 mol/L).
The entry for CC(=O)OCCN(CCOC(C)=O)c1ccc(N=Nc2sc([N+](=O)[O-])cc2[N+](=O)[O-])cc1 lists mp 145 °C and log Kow 4.2 and water solubility -7.547 (log10 mol/L) and vapor pressure -5.453 (log10 mmHg).
The entry for O=Cc1cc(O)c(O)c([N+](=O)[O-])c1 [3,4-Dihydroxy-5-nitrobenzaldehyde] lists log Kow 1.23 and water solubility -1.938 (log10 mol/L) and vapor pressure -5.763 (log10 mmHg).
The entry for Nc1ccc(S(=O)(=O)Nc2nccs2)cc1 [Sulfathiazole] lists fraction unbound 0.33 and hepatic Clint 0 µL/min/10^6 cells.
The entry for CCOC(=O)CC1(C)OCC(C)O1 (centres undefined) [Ethyl 2,4-dimethyl-1,3-dioxolane-2-acetate] lists log Kow 1.8 and water solubility -2.18 (log10 mol/L) and vapor pressure -1.227 (log10 mmHg).
The entry for CC1C(C=O)CC2CC1C2(C)C (centres undefined) [Bicyclo[3.1.1]heptane-3-carboxaldehyde, 2,6,6-trimethyl-] lists log Kow 4.2 and water solubility -3.558 (log10 mol/L) and vapor pressure -1.491 (log10 mmHg).
The entry for C=C(C)C(=O)OCCCC(F)(F)C(F)(F)C(F)(F)C(F)(F)C(F)(F)C(F)(F)F lists bp 232.9 °C and log Kow 6.18 and water solubility -6.769 (log10 mol/L) and vapor pressure -1.346 (log10 mmHg).
The entry for SCCSCC(CS)SCCS (centres undefined) [1-Propanethiol, 2,3-bis[(2-mercaptoethyl)thio]-] lists log Kow 3.16 and water solubility -4.355 (log10 mol/L).
The entry for O=c1[nH]c2cc(/N=C/c3c([O-])ccc4ccccc34)c(/N=C/c3c([O-])ccc4ccccc34)cc2[nH]1.[Ni+2] lists log Kow 1.2 and water solubility -7.627 (log10 mol/L).
The entry for C[C@]12CCC(=O)C=C1CC[C@@H]1[C@@H]2CC[C@@]2(C)[C@H]1CC[C@@]2(O)C#CCO [17beta-Hydroxy-17-(3-hydroxy-1-propynyl)androst-4-ene-3-one] lists mp 202.6 °C and log Kow 2.24 and water solubility -3.526 (log10 mol/L) and vapor pressure -12.99 (log10 mmHg).
The entry for C=CCOCC(=C)C(=O)OC [Methyl 2-((allyloxy)methyl)acrylate] lists mp -42.9 °C and bp 175 °C and log Kow 1.95.
The entry for O=C(COC(=O)c1ccccc1)NC(CO)(CO)CO lists mp 126 °C and water solubility -1.269 (log10 mol/L).
The entry for CC(=O)CCO [2-Butanone, 4-hydroxy-] lists mp -109 °C and vapor pressure -0.03 (log10 mmHg).
The entry for Cc1nc2c(O)cccn2c(=O)c1CCCl.Cl lists mp 224.9 °C and log Kow 1.9 and vapor pressure -5.732 (log10 mmHg).
The entry for CCCCCCn1ncc(N)c1N.CCCCCCn1ncc(N)c1N.O=S(=O)(O)O lists mp 84.39 °C and water solubility -3.149 (log10 mol/L).
The entry for Fc1ccc(C(F)(F)F)cc1Cl [Benzene, 2-chloro-1-fluoro-4-(trifluoromethyl)-] lists log Kow 3.88 and water solubility -3.672 (log10 mol/L).
The entry for COc1ccc(C)cc1NC(C)=O [Acetamide, N-(2-methoxy-5-methylphenyl)-] lists mp 110 °C and log Kow 1.46 and water solubility -1.931 (log10 mol/L).